Assay results published in patent US20080312263A1, “PHARMACEUTICAL COMPOSITIONS FOR THE PREVENTION AND TREATMENT OF ATHEROSCLEROSIS” (UNIVERSITE RENE DESCARTES-PARIS 5, priority 2004, published 2008).

Test system: Watanabe rabbits
Assay: Macroscopic study of the aortas: surface area of the lesions by planimetry
Type: in vivo, rabbit
Settings: T8, versus the control, FIG. 10
Method: After eight weeks, a sampling of serum (about 1 ml) is carried out then the animals are anaesthetized with an injection of heparinized pentobarbital, and finally sacrificed.
On the day of sacrifice, after anaesthesia, in the shortest possible time, the animal is opened along the whole length of the cervico-thoracic region. The aorta is incised as low as possible. Using curved scissors, the aorta is removed from the aortic arch as far as the level of the iliac bifurcation following the vertebral column. The aorta is first cleaned in physiological serum and the fatty tissues are removed from its external tunica. It is fixed for 20 minutes in a 2% paraformaldehyde-2% glutaraldehyde mixture then opened along its length. It is then again immersed in the same fixer for 24 hours, after which the aorta is rinsed in 70% ethanol, then stained with Soudan IV for 15 minutes. It is once again rinsed in 80% ethanol for 20 minutes then under running water for 1 hour (22). […] The images are analyzed by means of planimetry software (Scion Image) which makes it possible to determine the surface of the lesions. Finally the aorta is fixed in the same fixer with a view to microscopic study.

What does the source list for `CC(C)c1c(C(=O)Nc2ccccc2)c(-c2ccccc2)c(-c2ccc(F)cc2)n1CC[C@@H](O)C[C@@H](O)CC(=O)O` [atorvastatin, Atorvastatin]?
surface area of the lesions (whole aorta): unchanged; surface area of the lesions (whole aorta) (listed as statin alone): no difference
